Experimental data taken from patent US5614504A, “Method of making inosine monophosphate derivatives and immunopotentiating uses thereof” (The University of South Florida, priority 1995, dated 1997).

System: 5'-nucleotidase (from Crotalus atrox venom)
Assay: Testing of protection from 5'-nucleotidase activity (Table 1A)
Format: in vitro ADME
Details: in words

COP(=O)(O)OC[C@H]1O[C@@H](n2cnc3c(=O)[nH]cnc32)[C@H](O)[C@@H]1O [Me-IMP, Methyl-5'-inosine-monophosphate]
resistance to hydrolysis by 5'-nucleotidase: extremely resistant
